In PMC3794980, “Identification of Conserved and HLA Promiscuous DENV3 T-Cell Epitopes” (PLoS Neglected Tropical Diseases, 2013):

Assays:
Assay in all cases: biochemical
Assay type in all cases: binding
[1] = target: DRB1*1101 (Homo sapiens, UniProt P01903+P01911, A100R/A169T/A87E/I96F/K41T/L162R/M171V/P40S/Q125H/Q178H/Q39Y/Q99D/R42S/S66Y/T262R/V115G/W38E)
[2] = target: DRB1*0101 (Homo sapiens, UniProt P01903+P01911, A100R/D57E/F55L/F60I/F76Y/I96L/L162R/M171V/P40L/Q125E/R42F/V115G/Y59C)
[3] = target: DRB1*0404 (Homo sapiens, UniProt P01903+P01911, A100R/A169T/F76Y/I96L/K127E/L162R/M171V/N62H/P40V/Q125Y/R42H/S133A/S149N/S66Y/V209L/W38E)
[4] = target: DRB1*0401 (Homo sapiens, UniProt P01903+P01911, A100K/A169T/F76Y/I96L/K127E/L162R/M171V/N62H/P40V/Q125Y/R42H/S133A/S149N/S66Y/V115G/V209L/W38E)
[5] = target: DRB1*1302 (Homo sapiens, UniProt P01903+P01911, A100E/A169T/K41T/L162R/M171V/P40S/Q125H/Q178H/Q39Y/Q99D/R42S/S66N/T262R/V115G/W38E/Y61H)
[6] = target: DRB1*0405 (Homo sapiens, UniProt P01903+P01911, A100R/A169T/D86S/F76Y/I96L/K127E/L162R/M171V/N62H/P40V/Q125Y/R42H/S133A/S149N/S66Y/V115G/V209L/W38E)
[7] = target: DRB1*0301 (Homo sapiens, UniProt P01903+P01911, A100K/A102G/A103R/A169T/F55Y/I96L/K41T/L162R/M171V/P40S/Q125H/Q178H/Q39Y/R42S/S66N/T106N/T262R/W38E/Y61H)
[8] = target: DRB1*1501 (Homo sapiens, UniProt P01903+P01911)
[9] = target: DRB1*0802 (Homo sapiens, UniProt P01903+P01911, A100R/A103L/A169T/F76Y/H45Y/I96F/K41T/L162R/M171V/P40S/Q125H/Q178H/Q39Y/Q99D/R218S/R42G/S66Y/V115G/W38E)
[10] = target: DRB1*0901 (Homo sapiens, UniProt P01903+P01911, A100R/A103E/D57H/D86V/F55Y/F60I/F76Y/I96F/K127E/L162R/M171V/P40D/Q125H/Q99R/R33Q/R42F/S133A/S66N/T210M/V115G/W38K/Y107V/Y59G/Y89S)
[11] = target: DRB1*0701 (Homo sapiens, UniProt P01903+P01911, A100R/A102G/A103Q/D57E/D86V/E43K/F76Y/K127E/L162R/M171V/P40G/Q125H/Q99D/R33Q/R42Y/R54Q/S133A/S66F/T210M/V115G/Y107V/Y59L/Y89S)
[12] = read-out: Binding Affinity (nM) DRB1*1101
[13] = competitive inhibition of radiolabeled standard peptide, '-' distinct from ND, read-out: Binding Affinity (nM) DRB1*1302
[14] = read-out: Binding Affinity (nM) DRB1*0405
[15] = competitive inhibition of radiolabeled standard peptide, '-' distinct from ND, read-out: Binding Affinity (nM) DRB1*0901
[16] = read-out: Binding Affinity (nM) DRB1*0404
[17] = read-out: Binding Affinity (nM) DRB1*0301
[18] = read-out: Binding Affinity (nM) DRB1*1302

## CC[C@H](C)[C@H](NC(=O)[C@H](CCC(=O)O)NC(=O)[C@@H](NC(=O)[C@H](C)NC(=O)CNC(=O)[C@@H](NC(=O)[C@H](CC(C)C)NC(=O)[C@H](C)N)[C@@H](C)O)[C@@H](C)O)C(=O)N[C@@H](CCC(N)=O)C(=O)N[C@@H](CC(N)=O)C(=O)N[C@@H](CO)C(=O)NCC(=O)NCC(=O)N[C@H](C(=O)N[C@@H](CO)C(=O)O)[C@@H](C)O [Envelope 261-275]
[1]; [12]
  IC50: > 20000 nM
[2]
  IC50: 5.52 µM
[3]
  IC50: 13900 nM
[4]
  IC50: 5.02 µM
[5]; [13]
  IC50: 4170 nM
[6]; [14]
  IC50: > 20000 nM
[7]
  IC50: 6300 nM
[8]
  IC50: 9900 nM
[9]
  IC50: 2.37 µM
[10]; [15]
  IC50: 14100 nM

## CC[C@H](C)[C@H](NC(=O)CNC(=O)[C@@H](NC(=O)[C@@H](NC(=O)[C@@H](NC(=O)[C@H](CC(N)=O)NC(=O)[C@H](CO)NC(=O)[C@H](CCC(=O)O)NC(=O)CNC(=O)[C@H](Cc1ccccc1)NC(=O)[C@@H]1CCCN1C(=O)[C@@H]1CCCN1C(=O)[C@H](CCC(=O)O)NC(=O)[C@H](C)NC(=O)[C@@H](N)CCC(=O)O)[C@@H](C)CC)C(C)C)[C@@H](C)CC)C(=O)O [Envelope 366-380]
[1]; [12]
  IC50: > 20000 nM
[2]
  IC50: 1.04 µM
[3]
  IC50: 8930 nM
[4]
  IC50: 7.08 µM
[11]
  IC50: 0.552 µM
[6]
  IC50: 3590 nM
[7]
  IC50: 14900 nM
[9]
  IC50: 0.762 µM
[10]; [15]
  IC50: 2780 nM

## CC[C@H](C)[C@H](N)C(=O)N[C@H](C(=O)N[C@H](C(=O)NCC(=O)N[C@H](C(=O)NCC(=O)N[C@@H](CC(=O)O)C(=O)N[C@@H](CC(N)=O)C(=O)N[C@@H](C)C(=O)N[C@@H](CC(C)C)C(=O)N[C@@H](CCCCN)C(=O)N[C@H](C(=O)N[C@@H](CC(N)=O)C(=O)N[C@@H](Cc1c[nH]c2ccccc12)C(=O)N[C@@H](Cc1ccc(O)cc1)C(=O)O)[C@@H](C)CC)[C@@H](C)CC)[C@@H](C)CC)C(C)C [Envelope 376-390]
[1]; [12]
  IC50: > 20000 nM
[2]
  IC50: 0.476 µM
[3]
  IC50: 1090 nM
[4]
  IC50: 4.98 µM
[11]
  IC50: 2.98 µM
[6]
  IC50: 10300 nM
[8]
  IC50: 448 nM
[9]
  IC50: 0.085 µM
[10]; [15]
  IC50: 6030 nM

## CC[C@H](C)[C@H](NC(=O)[C@H](C)NC(=O)[C@@H](NC(=O)[C@H](C)NC(=O)[C@H](CC(C)C)NC(=O)[C@H](CCCNC(=N)N)NC(=O)[C@H](CCCCN)NC(=O)[C@@H]1CCCN1C(=O)[C@H](CO)NC(=O)[C@H](CC(=O)O)NC(=O)[C@H](C)NC(=O)[C@H](CCC(N)=O)NC(=O)[C@H](Cc1ccccc1)NC(=O)[C@@H](N)CCCCN)[C@@H](C)O)C(=O)N[C@@H](C)C(=O)O [NS1 33-47]
[2]
  IC50: 0.046 µM
[3]; [16]
  IC50: > 20000 nM
[4]
  IC50: 2.41 µM
[11]
  IC50: 9.7 µM
[6]; [14]
  IC50: > 20000 nM
[7]
  IC50: 1600 nM
[8]; read-out: Binding Affinity (nM) DRB1*1501
  IC50: > 20000 nM
[9]
  IC50: 15.6 µM
[10]
  IC50: 1530 nM

## CC[C@H](C)[C@H](NC(=O)[C@H](C)NC(=O)CNC(=O)[C@@H](NC(=O)[C@H](CCC(=O)O)NC(=O)CNC(=O)[C@@H](NC(=O)[C@@H](NC(=O)[C@@H](NC(=O)[C@H](CCC(N)=O)NC(=O)[C@H](Cc1ccccc1)NC(=O)[C@@H](NC(=O)CNC(=O)[C@@H]1CCCN1)[C@@H](C)O)[C@@H](C)O)[C@@H](C)O)[C@@H](C)O)[C@@H](C)CC)C(=O)N[C@@H](C)C(=O)O [NS3 113-127]
[1]
  IC50: 231 nM
[2]
  IC50: 0.226 µM
[3]
  IC50: 2080 nM
[4]
  IC50: 0.018 µM
[5]; [13]
  IC50: 7560 nM
[6]
  IC50: 3930 nM
[7]; [17]
  IC50: > 20000 nM
[8]
  IC50: 3040 nM
[9]
  IC50: 7.89 µM
[10]; [15]
  IC50: 333 nM

## CC[C@H](C)[C@H](NC(=O)[C@@H](NC(=O)[C@@H]1CCCN1C(=O)[C@@H](N)CO)[C@@H](C)CC)C(=O)N[C@@H](CC(N)=O)C(=O)N[C@@H](CCCNC(=N)N)C(=O)N[C@@H](CCC(=O)O)C(=O)NCC(=O)N[C@@H](CCCCN)C(=O)N[C@H](C(=O)N[C@H](C(=O)NCC(=O)N[C@@H](CC(C)C)C(=O)N[C@@H](Cc1ccc(O)cc1)C(=O)NCC(=O)O)C(C)C)C(C)C [NS3 137-151]
[2]
  IC50: 0.843 µM
[3]; [16]
  IC50: > 20000 nM
[4]
  IC50: 4.38 µM
[11]
  IC50: 12.6 µM
[5]; [13]
  IC50: 3510 nM
[6]
  IC50: 11200 nM
[8]
  IC50: 502 nM
[9]
  IC50: 3.21 µM
[10]; [15]
  IC50: 7520 nM

## CC[C@H](C)[C@H](N)C(=O)N[C@@H](CCCNC(=N)N)C(=O)N[C@@H](Cc1ccc(O)cc1)C(=O)N[C@@H](CCC(N)=O)C(=O)N[C@H](C(=O)N[C@H](C(=O)N[C@@H](C)C(=O)N[C@H](C(=O)N[C@@H](CCCCN)C(=O)N[C@@H](CO)C(=O)N[C@@H](CCC(=O)O)C(=O)N[C@@H](Cc1c[nH]cn1)C(=O)N[C@H](C(=O)NCC(=O)N[C@@H](CCCNC(=N)N)C(=O)O)[C@@H](C)O)[C@@H](C)O)[C@@H](C)O)[C@@H](C)O [NS3 241-255]
[1]
  IC50: 2570 nM
[2]
  IC50: 1.13 µM
[4]
  IC50: 0.303 µM
[11]
  IC50: 0.525 µM
[5]
  IC50: 5910 nM
[6]
  IC50: 75 nM
[7]; [17]
  IC50: > 20000 nM
[8]
  IC50: 14500 nM
[9]
  IC50: 5.44 µM
[10]
  IC50: 4910 nM

## CC[C@H](C)[C@H](NC(=O)[C@H](CCC(=O)O)NC(=O)CNC(=O)[C@H](CCCNC(=N)N)NC(=O)[C@H](CCCCN)NC(=O)[C@@H](N)CC(C)C)C(=O)N[C@H](C(=O)N[C@@H](Cc1c[nH]cn1)C(=O)N[C@@H](Cc1c[nH]cn1)C(=O)N[C@@H](C)C(=O)N[C@H](C(=O)N[C@@H](CO)C(=O)N[C@@H](CCCNC(=N)N)C(=O)NCC(=O)N[C@@H](CO)C(=O)N[C@@H](C)C(=O)N[C@@H](CCCCN)C(=O)O)C(C)C)[C@@H](C)O [NS5 45-61]
[2]
  IC50: 3.86 µM
[3]
  IC50: 645 nM
[4]
  IC50: 0.004 µM
[11]
  IC50: 0.453 µM
[5]; [18]
  IC50: > 20000 nM
[7]
  IC50: 13200 nM
[8]
  IC50: 44 nM
[9]
  IC50: 2.47 µM
[10]
  IC50: 376 nM

## CC(C)C[C@H](NC(=O)[C@H](Cc1ccccc1)NC(=O)CN)C(=O)N[C@@H](CC(N)=O)C(=O)N[C@@H](CCC(=O)O)C(=O)N[C@@H](CC(=O)O)C(=O)N[C@@H](Cc1c[nH]cn1)C(=O)N[C@@H](Cc1c[nH]c2ccccc12)C(=O)N[C@@H](Cc1ccccc1)C(=O)N[C@@H](CO)C(=O)N[C@@H](CCCNC(=N)N)C(=O)N[C@@H](CCC(=O)O)C(=O)N[C@@H](CC(N)=O)C(=O)N[C@@H](CO)C(=O)N[C@@H](Cc1ccc(O)cc1)C(=O)N[C@@H](CO)C(=O)NCC(=O)O [NS5 489-505]
[1]
  IC50: 1950 nM
[2]
  IC50: 0.231 µM
[4]
  IC50: 0.027 µM
[11]
  IC50: 4.32 µM
[5]; [18]
  IC50: > 20000 nM
[7]
  IC50: 118 nM
[8]
  IC50: 2890 nM
[9]
  IC50: 6.26 µM
[10]
  IC50: 3000 nM

## CC[C@H](C)[C@H](NC(=O)[C@H](CC(C)C)NC(=O)[C@H](CO)NC(=O)CNC(=O)[C@H](CS)NC(=O)[C@H](Cc1c[nH]c2ccccc12)NC(=O)[C@H](CCC(N)=O)NC(=O)[C@H](CC(=O)O)NC(=O)[C@H](CCC(=O)O)NC(=O)[C@H](CCCNC(=N)N)NC(=O)[C@H](CCCCN)NC(=O)CNC(=O)[C@H](CC(C)C)NC(=O)[C@@H](N)Cc1ccc(O)cc1)C(=O)NCC(=O)N[C@@H](CC(C)C)C(=O)N[C@H](C(=O)O)[C@@H](C)O [NS5 838-854]
[1]
  IC50: 10500 nM
[3]
  IC50: 2090 nM
[4]
  IC50: 3.55 µM
[11]
  IC50: 2.77 µM
[5]; competitive inhibition of radiolabeled standard peptide, DRB1*1302, read-out: Binding Affinity (nM) DRB1*1302
  IC50: 12000 nM
[6]
  IC50: 1470 nM
[7]; [17]
  IC50: > 20000 nM
[8]
  IC50: 2900 nM
[9]
  IC50: 0.573 µM
[10]; competitive inhibition of radiolabeled standard peptide, DRB1*0901, read-out: Binding Affinity (nM) DRB1*0901
  IC50: 680 nM

Read-outs that look alike come from different tables or passages of the source.
